System: human prostatic carcinoma cells, PC-3 (subcutaneous xenografts)
Test: subcutaneous PC-3 xenografts in nude mice, tumor volume
Assay type: in vivo, NCr athymic nude mice
Conditions: tumors expanded to 100 mm^3 before treatment; treatment days 13-31; 120 mg/kg BN-50730 and/or 1,000 U IFN-2a; p<0.001, F-test
Description: Pathogen-free 4 to 6 week-old male NCr athymic nude mice (Taconic, Germantown, N.Y.) were housed in sterilized, filter-topped cages kept in laminar flow isolators (Forma Scientific, Marietta, Ohio), and fed autoclaved food and water ad libitum. Four animals were housed in each cage. Mice were acclimated to the vivarium for one week prior to their use in study protocols. All procedures involving the mice were performed under sterile conditions in a laminar flow hood (Forma Scientific). All studies were approved by the institutional animal care and use committee.
Human PC-3 prostate cancer cells (2×10^6 cells; American Type Culture Collection CRL-1435) were inoculated subcutanteously into the flanks of nude mice in 0.1 ml HBSS (Hank's balanced salt solution) (Life Technologies). […] For tumors implanted subcutaneously, tumors were measured in a blind fashion with dial calipers, and the volume was calculated using the formula ½*π(W*L*H).
Potential anti-angiogenic and anti-tumor effects of the PAF antagonist BN-50730 were tested on human tumor xenografts in the NCr athymic nude mice. […] Animals were sacrificed at day 13, 17, 21 and 28, and the volumes of the subcutaneous tumors were measured using dial calipers and the formula ½*π(W*L*H) as described in Example 1. […]

IFN-2a: FDA human-approved antiangiogenic compound, human IFN-2a (Sigma Chemical Co.) [reference compound]
tumor size of established PC-3 xenografts vs control animals: significantly smaller tumors
